This note sets out measurements from BindingDB's records for PubMed 9694962 (Memorial Sloan-Kettering Cancer Center, 1998).

Protein sequences, listed by entry. Tags and fused reporters are not part of them.
UniProt P42866, whole entry: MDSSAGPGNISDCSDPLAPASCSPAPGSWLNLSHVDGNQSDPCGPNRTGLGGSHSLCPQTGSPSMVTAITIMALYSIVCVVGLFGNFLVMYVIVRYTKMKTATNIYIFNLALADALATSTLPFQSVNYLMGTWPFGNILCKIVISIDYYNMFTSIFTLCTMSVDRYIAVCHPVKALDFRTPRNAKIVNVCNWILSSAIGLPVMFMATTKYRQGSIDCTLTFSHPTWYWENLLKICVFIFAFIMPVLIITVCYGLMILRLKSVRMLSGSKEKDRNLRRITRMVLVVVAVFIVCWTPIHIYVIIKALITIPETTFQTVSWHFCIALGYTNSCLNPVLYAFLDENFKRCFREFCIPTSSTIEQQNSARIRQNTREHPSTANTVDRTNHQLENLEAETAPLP

In this assay the target is Mu-type opioid receptor (Mus musculus, UniProt P42866).

Where “and” joins values, the source holds several entries; their conditions need not be identical. Equal entries are not always repeated.

One may read the Ki as a dissociation constant, usually derived from enzyme kinetics or from competition with a known ligand. For the compound `CSCC[C@H](NC(=O)[C@H](Cc1ccccc1)NC(=O)CNC(=O)CNC(=O)[C@@H](N)Cc1ccc(O)cc1)C(=O)O` [2-[(S)-2-(2-{2-[(S)-2-Amino-3-(4-hydroxy-phenyl)-propionylamino]-acetylamino}-acetylamino)-1-oxo-3-phenyl-propylamino]-4-methylsulfanyl-butyric acid], the Ki was 1.28 nM and 1.21 nM.
